Measurements as given in patent publication US7491827B2, “Aryl sulfonamides useful as inhibitors of chemokine receptor activity” (Millennium Pharmaceuticals, Inc., priority 2003, dated 2009).

Chains of the proteins cited; added tags and fusions are not shown.
UniProt P51685, whole entry: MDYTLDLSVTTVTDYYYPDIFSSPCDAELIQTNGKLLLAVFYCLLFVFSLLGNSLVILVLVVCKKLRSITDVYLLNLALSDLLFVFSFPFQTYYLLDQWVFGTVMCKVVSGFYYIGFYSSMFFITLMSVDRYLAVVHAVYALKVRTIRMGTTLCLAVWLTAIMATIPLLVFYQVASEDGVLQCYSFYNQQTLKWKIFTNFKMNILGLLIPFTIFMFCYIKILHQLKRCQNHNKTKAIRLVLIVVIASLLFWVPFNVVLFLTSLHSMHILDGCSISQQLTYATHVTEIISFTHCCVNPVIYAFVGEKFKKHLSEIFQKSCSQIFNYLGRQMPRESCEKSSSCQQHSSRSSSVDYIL

Molecular target: cloned human CCR8 receptor stably expressed in L1.2 cells (Homo sapiens, UniProt P51685)
Experiment: whole cell binding screen: inhibition of biotinylated human I309 binding to CCR8 (FMAT 8100 HTS)
Details: read-out: Ki of compounds to inhibit I-309 binding to CCR8; L1.2/hCCR8 cells, biotinylated human I-309, 10 point concentration response starting at 10 μM

Cc1ccccc1C(=O)Nc1ccc(S(=O)(=O)NC2CCN(C(=O)N3CCCC3)CC2)c2ccccc12
Ki: < 0.5 µM
